Measurements: patent US20070225492A1 (priority 2004, published 2007)
pKi: −log10 of the molar value. Counter-ions that a name gives are not always drawn.

By UniProt entry, the sequences of proteins in these tests, tags left out.
UniProt P42866, whole entry: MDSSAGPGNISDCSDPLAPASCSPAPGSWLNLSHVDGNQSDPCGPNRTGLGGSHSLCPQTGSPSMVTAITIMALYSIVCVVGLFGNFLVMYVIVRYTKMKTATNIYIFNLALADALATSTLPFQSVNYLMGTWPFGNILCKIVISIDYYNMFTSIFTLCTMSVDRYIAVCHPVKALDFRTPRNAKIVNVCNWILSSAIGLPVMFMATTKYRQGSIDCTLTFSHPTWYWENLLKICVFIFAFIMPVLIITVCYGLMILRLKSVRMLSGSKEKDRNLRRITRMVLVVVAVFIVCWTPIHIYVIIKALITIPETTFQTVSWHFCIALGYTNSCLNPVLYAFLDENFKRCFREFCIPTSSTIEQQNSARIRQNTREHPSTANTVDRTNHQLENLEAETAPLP
UniProt P33534, whole entry: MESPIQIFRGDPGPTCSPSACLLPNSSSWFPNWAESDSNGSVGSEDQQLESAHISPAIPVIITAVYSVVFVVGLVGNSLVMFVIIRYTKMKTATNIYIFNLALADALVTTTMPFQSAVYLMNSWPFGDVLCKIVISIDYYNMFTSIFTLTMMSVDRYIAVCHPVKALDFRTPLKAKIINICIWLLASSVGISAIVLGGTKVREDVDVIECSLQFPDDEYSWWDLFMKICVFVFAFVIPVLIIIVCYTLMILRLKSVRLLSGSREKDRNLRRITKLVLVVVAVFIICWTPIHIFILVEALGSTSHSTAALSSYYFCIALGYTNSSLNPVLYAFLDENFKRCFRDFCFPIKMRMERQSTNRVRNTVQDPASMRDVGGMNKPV

Tests used:
μ receptors = μ receptors (Mus musculus, UniProt P42866); test: opioid receptor binding in mouse brain homogenate, [3H]-DAMGO; conditions: read-out: Affinity Ki towards opioid receptors, μ, mean ± SEM, n=3
δ receptors = δ receptors (Mus musculus, UniProt P32300); test: opioid receptor binding in mouse brain homogenate, [3H]-Deltorphina; conditions: read-out: Affinity Ki towards opioid receptors, δ, mean ± SEM, n=3
κ receptors = κ receptors (Mus musculus, UniProt P33534); test: opioid receptor binding in mouse brain homogenate, [3H]-U69593; conditions: read-out: Affinity Ki towards opioid receptors, κ, [3H]-U69593, mean ± SEM, n=3

SMILES	pKi (μ receptors)	pKi (δ receptors)	pKi (κ receptors)
CCC(=O)N1CC2CC(C1)N2C/C=C(\C)c1ccccc1 (as salt: hydrochloride)	6.75	< 5.30	< 5.30
CCC(=O)N1CC2CC(C1)N2C/C=C(\CC)c1ccccc1 (as salt: hydrochloride)	6.42	< 5.30	< 5.30
